The data set has as its target histone H3 (calf thymus), intact protein.

Changes are numbered by the printed parent chain.

B1: recombinant 6xHis-tagged ySir2p mutant Asn-345 (to alanine) (protein)
chain: HHHHHHMTIPHMKYAVSKTSENKVSNTVSPTQDKDAIRKQPDDIINNDEPSHKKIKVAQPDSLRETNTTDPLGHTKAALGEVASMELKPTNDMDPLAVSAASVVSMSNDVLKPETPKGPIIISKNPSNGIFYGPSFTKRESLNARMFLKYYGAHKFLDTYLPEDLNSLYIYYLIKLLGFEVKDQALIGTINSIVHINSQERVQDLGSAISVTNVEDPLAKKQTVRLIKDLQRAINKVLCTRLRLSNFFTIDHFIQKLHTARKILVLTGAGVSTSLGIPDFRSSEGFYSKIKHLGLDDPQDVFNYNIFMHDPSVFYNIANMVLPPEKIYSPLHSFIKMLQMKGKLLRNYTQAIDNLESYAGISTDKLVQCHGSFATATCVTCHWNLPGERIFNKIRNLELPLCPYCYKKRREYFPEGYNNKVGVAASQGSMSERPPYILNSYGVLKPDITFFGEALPNKFHKSIREDILECDLLICIGTSLKVAPVSEIVNMVPSHVPQVLINRDPVKHAEFDLSLLGYCDDIAAMVAQKCGWTIPHKKWNDLKNKNFKCQEKDKGVYVVTSDEHPKTL
In the case of B1, the “ADP-ribosyltransferase activity (32P-NAD)” value was “Mutants 345 and 347 were completely inactive”.

B2: recombinant 6xHis-tagged ySir2p mutant Arg-275 (to alanine) (protein)
chain: B1 chain with R281A, A351N
On to B2, for which the “ADP-ribosyltransferase activity (32P-NAD)” value is listed as “mutant 275 was about as active as wild type”.

B3: recombinant 6xHis-tagged ySir2p mutant Thr-261 (to alanine) (protein)
chain: B1 chain with T267A, A351N
B3: the “ADP-ribosyltransferase activity (32P-NAD)” value was “mutants 261, 270, and 271 displayed very weak activity, 4%, 7%, and 8%, respectively”.

B4: recombinant 6xHis-tagged ySir2p mutant Iso-271 (to alanine) (protein)
chain: B1 chain with I277A, A351N
For B4, the “ADP-ribosyltransferase activity (32P-NAD)” value was “mutants 261, 270, and 271 displayed very weak activity, 4%, 7%, and 8%, respectively”.

B5: recombinant 6xHis-tagged ySir2p mutant Asp-347 (to alanine) (protein)
chain: B1 chain with A351N, D353A
In the case of B5, the “ADP-ribosyltransferase activity (32P-NAD)” value was “Mutants 345 and 347 were completely inactive”.

B6: recombinant 6xHis-tagged ySir2p mutant Gly-270 (to alanine) (protein)
chain: B1 chain with G276A, A351N
On to B6, for which the “ADP-ribosyltransferase activity (32P-NAD)” value is “mutants 261, 270, and 271 displayed very weak activity, 4%, 7%, and 8%, respectively”.

Source of the values: patent US8642284.
